Tested on: serotonin
Test: In vivo brain microdialysis, serotonin modulation in ventral hippocampus
Conditions: paroxetine 5 mg/kg, i.p. alone, rat ventral hippocampus
Excerpt: Under isoflurane anesthesia, male Wistar rats (240-300 g body weight) were stereotaxically implanted with a microdialysis guide cannula in ventral hippocampus (AP: −5.2 mm, ML: +5.0 mm, DV: −3.8 mm). Co-ordinates were taken according to atlas for the rat brain (Paxinos and Watson, 2004) with reference points taken from bregma and vertical from the skull. […] One day prior to the microdialysis experiment, rats were connected to a dual quartz lined two-channel liquid swivel (Instech, UK) on a counter balance lever arm, which allowed unrestricted movements of the animal. Approximately sixteen hour before start of study, a pre-equilibrated microdialysis probe (4 mm dialysis membrane) was inserted into the ventral hippocampus through the guide cannula. […] Quantification of serotonin using LC-MS/MS Concentrations of serotonin in dialysates were quantified using LC-MS/MS by the analytical method described in Nirogi et al. [2013] after slight modifications. […] The analytes were quantified using triple quadrupole tandem mass spectrometer in positive ionisation mode using atmospheric pressure ionisation source. […] The statistical significance between the mean AUC values for percent change in neurotransmitter levels of treatment groups with vehicle was calculated using one way ANOVA followed by Dunnetts test. […]

Fc1ccc([C@@H]2CCNC[C@H]2COc2ccc3c(c2)OCO3)cc1 [paroxetine, reference compound]
increase in hippocampal serotonin levels, mean maximum above pre-dose levels: 114%
